Test results as given in article PMC11507974, “Phytochemical Analysis, Antioxidant Activity and Bioassay-Guided Isolation of Acetylcholinesterase and Butyrylcholinesterase Inhibitors from Horsfieldia polyspherula Bark (Myristicaceae)” (Tropical Life Sciences Research, 2024).

The chains behind the UniProt entries cited, without tags or fusion partners. Residues count along the entry.
UniProt O42275, 24-633: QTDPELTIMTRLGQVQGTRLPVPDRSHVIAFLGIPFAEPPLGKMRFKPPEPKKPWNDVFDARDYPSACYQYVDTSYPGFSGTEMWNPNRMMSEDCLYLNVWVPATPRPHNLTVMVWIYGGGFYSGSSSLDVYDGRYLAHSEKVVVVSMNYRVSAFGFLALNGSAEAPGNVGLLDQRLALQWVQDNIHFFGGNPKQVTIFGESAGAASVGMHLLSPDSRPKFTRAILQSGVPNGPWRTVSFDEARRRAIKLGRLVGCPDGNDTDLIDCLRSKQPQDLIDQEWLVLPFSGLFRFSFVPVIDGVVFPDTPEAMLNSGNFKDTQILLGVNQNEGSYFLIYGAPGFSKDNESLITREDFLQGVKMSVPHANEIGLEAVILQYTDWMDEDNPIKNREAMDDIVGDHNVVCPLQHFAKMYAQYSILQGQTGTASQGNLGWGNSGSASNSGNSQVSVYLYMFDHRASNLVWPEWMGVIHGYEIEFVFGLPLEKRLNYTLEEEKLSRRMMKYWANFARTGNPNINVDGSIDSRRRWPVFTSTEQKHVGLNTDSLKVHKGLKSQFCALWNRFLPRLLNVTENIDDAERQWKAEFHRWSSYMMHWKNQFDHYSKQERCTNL

Molecular target: T1, AChE from Electrophorus electricus (electric eel) Type V-S (Electrophorus electricus, UniProt O42275)
T1 construct: purified AChE from Electrophorus electricus (electric eel) Type V-S (C2888-1K); purchased Sigma Aldrich, Germany C2888-1K
Type: biochemical
Protocol: To assess the inhibitory activity of H. polyspherula extract, fractions and isolated compounds towards AChE and BuChE, Ellman’s spectrophotometric method was followed ([Ellman et al. 1961]) using purified AChE from Electrophorus electricus (electric eel) Type V-S (C2888-1K), and BuChE from equine serum lyophilized powder (C7512-1.2KU) all from Sigma Aldrich, Germany. The reaction took place in a final volume of 200 μL of a (140 μL to 160 μL) 100 mM phosphate-buffered solution at pH 7.5 for AChE and 8.0 for BuChE, containing (20 μL) 0.2 U of AChE or 0.1 U of BuChE. Inhibition curves were made by pre-incubating this mixture with six concentrations of each sample (20 μL) for 15 min. A sample with no compound (blank) was present to determine the 100% of enzyme activity. […] Changes in absorbance were detected at 412 nm in a 96 well spectrophotometric microplate reader (Bostch Biotek) after 30 min. […] Data are analysed using excel, graph pad prism 9.0.0 and expressed as means ± SD of at least three different experiments in triplicate. […]

Question: Which “% inhibition AChE” value (control, tested at 0.2 μM) does the source give for `CNC(=O)Oc1ccc2c(c1)[C@]1(C)CCN(C)[C@@H]1N2C` [Eserine, reference compound] here?
Answer: Its value is 76.61 ± 1.31%.

Question: And the IC50 (pure compounds (μM for the pure compound))?
Answer: Its IC50 is 0.07 µM.
